Laboratory results from article PMC5767125 (Journal of medicinal chemistry, 2017).

Chains of the proteins cited; added tags and fusions are not shown.
UniProt P35462, whole entry: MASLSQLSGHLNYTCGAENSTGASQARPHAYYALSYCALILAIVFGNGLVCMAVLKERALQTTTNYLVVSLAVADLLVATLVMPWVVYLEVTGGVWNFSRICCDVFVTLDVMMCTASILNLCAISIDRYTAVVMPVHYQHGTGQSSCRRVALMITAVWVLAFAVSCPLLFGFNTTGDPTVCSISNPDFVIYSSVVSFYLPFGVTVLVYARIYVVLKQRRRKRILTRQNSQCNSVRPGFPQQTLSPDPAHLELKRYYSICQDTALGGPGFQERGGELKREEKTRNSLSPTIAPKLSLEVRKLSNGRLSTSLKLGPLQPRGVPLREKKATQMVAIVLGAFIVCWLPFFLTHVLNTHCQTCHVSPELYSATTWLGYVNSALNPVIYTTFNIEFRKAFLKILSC

Biological target: human D3 expressed in HEK cells (Homo sapiens, UniProt P35462)
Assay: D3 receptor radioligand filtration binding assay
Conditions: Ki for D3 receptors/Ki for D2 receptors as printed; fold selectivity for D3R

## COc1ccccc1N1CCC2(CCN(CCCSc3nnc(-c4ccccc4)n3C)CC2)CC1 [Compound 15a]
  D3R/D2R Ratio (selectivity): over 900
